The results in this text go back to PubChem BioAssay AID2284334 (EPA ToxCast).

Protein sequences, listed by entry. Tags and fused reporters are not part of them. Lines headed by an entry give the natural chain unless they say otherwise; changes in a name come on top.
UniProt Q07869: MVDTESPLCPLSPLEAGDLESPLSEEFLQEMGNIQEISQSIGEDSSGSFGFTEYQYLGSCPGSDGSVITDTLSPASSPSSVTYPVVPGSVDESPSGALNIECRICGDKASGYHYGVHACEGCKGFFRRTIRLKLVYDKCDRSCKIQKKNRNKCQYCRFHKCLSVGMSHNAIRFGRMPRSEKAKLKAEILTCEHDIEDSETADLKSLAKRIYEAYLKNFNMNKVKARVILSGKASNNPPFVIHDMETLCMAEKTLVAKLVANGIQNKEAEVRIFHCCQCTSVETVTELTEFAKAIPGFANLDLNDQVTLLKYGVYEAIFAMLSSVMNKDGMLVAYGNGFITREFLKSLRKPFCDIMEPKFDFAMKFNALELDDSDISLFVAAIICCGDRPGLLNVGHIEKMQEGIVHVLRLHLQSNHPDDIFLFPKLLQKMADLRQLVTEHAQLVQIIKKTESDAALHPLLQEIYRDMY

Only a part is listed here, and it is no random draw. Records with an inconclusive call do not appear. Active and inactive are the calls of the source. How the source made its calls: active means hit-call score of the fitted dose curve at least 0.9, where 1 is the maximum; inconclusive means response in the unintended direction; inactive means score below 0.9.

The target in the test is human Peroxisome Proliferator-activated Receptor alpha (PPARa), PPARA (gene 5465) (UniProt Q07869). Description: ATG_hPPARa_EcoTox2: Attagene TRANS-FACTORIAL EcoTox-2 HepG2 Assay for human Peroxisome Proliferator-activated Receptor alpha (PPARa). As for the experimental part:
ATG_EcoTox2 is a cell-based, multiplexed assay created by modifying the existing Attagene TRANS-FACTORIAL system to include a panel of nuclear receptors from some or all the following species: human (Homo sapiens), african clawed frog (Xenopus laevis), rainbow trout (Oncorhynchus mykiss), japanese medaka (Oryzias latipes), and zebrafish (Danio rerio). The ECOTOX2-FACTORIAL format uses HepG2, a human liver cell line, with measurements taken at 24 hours after chemical dosing in a 24-well plate. ATG_hPPARa_EcoTox2 is one of 29 assay components calculated in the ATG_EcoTox2 assay. It is designed to make measurements of mRNA induction, a form of inducible reporter, as detected with fluorescence intensity signals by Reverse transcription polymerase chain reaction (RT-PCR) and Capillary electrophoresis technology.The assay endpoint ATG_hPPARa_EcoTox2 was analyzed in the positive analysis fitting direction relative to DMSO as the negative control and baseline of activity. Using a type of inducible reporter, measures of mRNA for gain-of-signal activity can be used to understand the reporter gene at the transcription factor-level as they relate to the gene PPARa. Furthermore, this assay endpoint can be referred to as a primary readout, because this assay has produced multiple assay endpoints where this one serves a reporter gene function. […]

As for `Cc1nc(-c2ccc(C(F)(F)F)cc2)sc1C(=O)NCc1ccc(OC(C)(C)C(=O)O)cc1`, the AC50 is active: 82.3 nM.

What is called AC50 is the concentration at which the activity in the assay is half-maximal.
